In PubChem BioAssay AID651558 (National Center for Advancing Translational Sciences (NCATS), 2012) one finds activity change, negative = inhibition data, which are given here for 1 molecule.

The entries are a selection whose mix differs from that of the whole data set. Records with an inconclusive call do not appear. Active and inactive are the calls of the source. The call rests on the fitted dose curve; in most records, active means well fitted inhibition curve with a large enough effect; inconclusive means small, poorly fitted or top-dose-only effect; inactive means no such curve, though single readings can be large or run the other way.
On the % scale 0 is the no-effect control and ±100 the full control effect.

The test can be described thus: qHTS Assay to Find Inhibitors of Chronic Active B-Cell Receptor Signaling: Hit Validation in Primary Screen. Further: nearly all actives have a fitted effect of over 75% in size. The settings on record: ABC-DLBCL IkB-luc/CBR ratio luminescence, 4 h; at 46.1 µM (top of the series). From the text: Diffuse large B-cell lymphoma (DLBCL) is the most common category of non-Hodgkin lymphoma, with ~20,000 new cases per year in the United States. DLBCL should be regarded as a collection of different neoplasms. Microarray gene expression analysis has defined two principal types of DLBCL, named for their similarity to normal B cell stages or activation states: a germinal center B-cell (GCB) type, and an activated B-cell (ABC) type. In ABC-DLBCL, a constitutive high-level activity of the NF-kappaB family of transcription factors has been observed (1) and NF-kappaB target genes are more highly expressed in ABC primary tumors than in GCB tumors. […] Following the addition of doxycycline to induce expression of the luciferases, the green luminescence in control cultures rises only slowly because the CBG fusion partner IkappaBalpha is targeted by IKK activity for rapid degradation. In contrast, green luminescence rises rapidly in the presence of proteasome inhibitors or IKK inhibitors. The rise in red luminescence of CBR is not affected by proteasome or IKK inhibitors, and serves as normalization for cell number and nonspecific effects. […]
Cells were seeded in 1536-well plates at 5000 cells/4uL in IMDM medium containing 0.5% FBS, w/o phenol red, 1% penicillin/streptomycin. […] The %Activity was determined from the ratio of corrected green/red luminescent values. […]
With `COc1ccc(C2=NCC(CBr)S2)cc1` (stereo unspecified), the activity change, negative = inhibition was inactive: 37.5%.
